According to US10537520B2, “Stable liquid formulations of melphalan” (dated 2020):

Assay: Solubility studies in various solvents
Settings: 25° C.

Melphalan Hydrochloride
Solubility Result (100 mg in DMA 0.3 mL + Propylene Glycol 0.05 mL + Ethanol 0.65 mL): Clear | Solubility Result (100 mg in DMA 0.5 mL + Ethanol 0.5 mL): Clear | Solubility Result (100 mg in DMA 1.1 mL): Clear | Solubility Result (100 mg in Ethanol 1 mL): Hazy solution | Solubility Result (100 mg in PEG-400 0.1 mL + Propylene Glycol 0.9 mL): Clear | Solubility Result (100 mg in PEG-400 0.2 mL + Propylene Glycol 0.8 mL): Clear | Solubility Result (100 mg in PEG-400 0.5 mL + Propylene Glycol 0.5 mL): Clear | Solubility Result (100 mg in PEG-400 0.7 mL + Propylene Glycol 0.3 mL): Clear | Solubility Result (100 mg in PEG-400 0.9 mL + Propylene Glycol 0.1 mL): Clear | Solubility Result (100 mg in PEG-400 1.0 mL + Propylene Glycol 0 mL): Clear after | Solubility Result (100 mg in Propylene Glycol 1 mL): Not Clear
